AlphaSeq binding of Ab-95 light chain variants to a spike HR2 peptide

Values reported by Engelhart et al. 2022, doi:10.1038/s41597-022-01779-4 (FLAb copy).

The target is the same throughout: PDVDLGDISGINAS, from the HR2 region of SARS-CoV-2 spike.

Each scFv is VH, three GGGGS repeats, VL, as in the parent Ab-95, and differs from it in the CDRs of the light chain only.
VH: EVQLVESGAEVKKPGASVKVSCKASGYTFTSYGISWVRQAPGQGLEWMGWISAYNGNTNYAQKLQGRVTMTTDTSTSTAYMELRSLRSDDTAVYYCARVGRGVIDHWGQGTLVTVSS
VL: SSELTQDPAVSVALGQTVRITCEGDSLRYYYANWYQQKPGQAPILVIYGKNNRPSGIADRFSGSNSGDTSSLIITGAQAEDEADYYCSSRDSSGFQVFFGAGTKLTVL

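The starting antibody came from a phage panning campaign against this peptide. AAYL52 was designed without a model: most single CDR substitutions and a random sample of double and triple ones. The assay is AlphaSeq: two haploid yeast populations carry antibody and antigen on their surface. After mating in shaken culture at 30 °C for 16 h, diploids were selected and their barcode pairs sequenced. A regression on co-assayed BCL2-family reference pairs converts the normalised counts of each replicate to an apparent Kd. Mating was done three times.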

The parent's light chain CDRs are EGDSLRYYYAN, GKNNRPS, SSRDSSGFQVF; each variant's own CDRs replace them letter for letter. This list gathers variants with a substitution at K50 (VL, numbered from residue 1). Scale: log10 of Kd in nM, estimated from mating counts; low values are strong binders. Averages over replicates are reported, and they cover detected replicates only. Where no diploid with the target was found in any replicate, the entry reads "nd": below detection, most likely a poor binder, though not proof of it. In this assay the parent's reference entry averaged 2.31; its copy inside this library read 2.25. Background: pairings of library AAYL52 with three empty control strains gave a value in 28% of cases (median 3.91, 5th percentile 2.90). Values in that range, when seen in few replicates, are hard to tell from nonspecific mating. Also given: how often the same scFv was detected with the empty control strains.

With EGDSLRYYYTN / GTNNRPS / SSRDSSGFQVF the result was 3.31 (3 of 3 replicates; controls 3 of 9).
With TGDSLRYYYAN / GNNNRPS / SSRDSSGFQGF the result was 2.64 (3 of 3 replicates; controls 3 of 9).
With EGDSLRYYNAN / GRNNRMS / SSRDSSGFQVF the result was 1.16 (3 of 3 replicates; controls 1 of 9).
With EGDSLRYYYRN / GYNVRPS / SSRDSSGFQVF the result was 3.24 (2 of 3 replicates; controls 1 of 9).
With EGDSLRYYYAN / GQNNRPS / SRRDSEGFQVF the result was 3.76 (3 of 3 replicates; controls 4 of 9).
With EGDSLRYYYAN / DYNLRPS / SSRDSSGFQVF the result was 3.51 (3 of 3 replicates; controls 1 of 9).
With EGDSLRYYEAN / GFNNVPS / SSRDSSGFQVF the result was 3.10 (1 of 3 replicates; controls 0 of 9).
With DGDSLRYYYAN / GNNNRPS / SSRDSSGFQVF the result was 2.04 (3 of 3 replicates; controls 2 of 9).
With EMPSLRYYYAN / GRNNRPS / SSRDSSGFQVF the result was 3.46 (3 of 3 replicates; controls 1 of 9).
With EGDELRIYYAN / GQNNRPS / SSRDSSGFQVF the result was 3.56 (2 of 3 replicates; controls 3 of 9).
With EGDSNRYYYAN / KINNRPS / SSRDSSGFQVF the result was 4.17 (1 of 3 replicates; controls 1 of 9).
With EGDSLRYYYAN / GRNNRHS / SSRDSSGFQVM the result was 3.13 (3 of 3 replicates; controls 4 of 9).
With EGDSLRMYYAN / GGNNRPS / SSRDSSHFQVF the result was 2.63 (3 of 3 replicates; controls 4 of 9).
With EGDSLRYYYAN / GTNNRPT / SSRDSMGFQVF the result was 3.58 (1 of 3 replicates; controls 1 of 9).
With ESDSLRYYYAN / GDNNRPS / SSRDSSGFQVF the result was 2.04 (3 of 3 replicates; controls 3 of 9).
With EGDSLRYQYAN / GWNNRPS / SSQDSSGFQVF the result was 4.48 (2 of 3 replicates; controls 1 of 9).
With MGDSLSYYYAN / GRNNRPS / SSRDSSGFQVF the result was 2.19 (3 of 3 replicates; controls 4 of 9).
With EGDSLRYDYAN / GGNNRPS / SSRDSSGFRVF the result was 2.59 (3 of 3 replicates; controls 2 of 9).
With FGDSLRYYYAN / GWNNRPS / SSRDSSGFHVF the result was 5.29 (1 of 3 replicates; controls 0 of 9).
With EGDSDRYYYIN / GGNNRPS / SSRDSSGFQVF the result was 2.04 (3 of 3 replicates; controls 3 of 9).
With EGDDLRYYYAN / GNNNRPS / SSRDSSQFQVF the result was 2.08 (3 of 3 replicates; controls 4 of 9).
With EGDQLRYYYAN / GQNNRPS / SSRDHSGFQVF the result was 2.51 (3 of 3 replicates; controls 3 of 9).
With EGDSLRYYYAG / GSNNRPS / SSRDSSGFQVM the result was 3.58 (3 of 3 replicates; controls 1 of 9).
With EGDSLRKYYAN / GQNNRPS / SSRDSSEFQVF the result was 1.96 (3 of 3 replicates; controls 5 of 9).
With EGDFLRYYYAN / GANNRES / SSRDSSGFQVF the result was 3.31 (2 of 3 replicates; controls 2 of 9).
With EGDSLRYYYAH / GCNNRPS / SSRDSSGFQVF the result was 4.57 (2 of 3 replicates; controls 3 of 9).
With EGDSLRYYYAN / GFNVRPS / SSRDSSGFCVF the result was 3.31 (3 of 3 replicates; controls 1 of 9).
With EGDSLRYYYAN / GCNNRPS / SSRDSRFFQVF the result was 4.16 (2 of 3 replicates; controls 3 of 9).
With EGDSLWYYYAN / GRNNRPS / SSRDSMGFQVF the result was 3.60 (3 of 3 replicates; controls 7 of 9).
With EGDSLRYKYAN / GVNNRPS / SNRDSSGFQVF the result was 2.53 (3 of 3 replicates; controls 3 of 9).
With EGDSLRYYYAN / GWNNRPS / SSRESSPFQVF the result was 3.70 (1 of 3 replicates; controls 3 of 9).
With EGDSGRYYYAV / GSNNRPS / SSRDSSGFQVF the result was 3.82 (1 of 3 replicates; controls 1 of 9).
With EGDSLRYKYAN / GDNNRPS / SSRCSSGFQVF the result was 1.85 (3 of 3 replicates; controls 3 of 9).
With EGGSLRYYYAN / GFNNRKS / SSRDSSGFQVF the result was nd (0 of 3 replicates; controls 0 of 9).
With EGDWLRYYYAN / GPNNRPS / SSRDSTGFQVF the result was 2.69 (3 of 3 replicates; controls 4 of 9).
With EGDSLRYYYAN / GPNNRPS / SSRDMSGFQVF the result was 2.24 (3 of 3 replicates; controls 3 of 9).
With EGDSLRYYYAN / GLNNRPS / SSRDSSGFQVF the result was 2.70 (3 of 3 replicates; controls 1 of 9).
With EGDSLRYYYAN / GISNRPS / SSRDSSGFQVF the result was 3.66 (3 of 3 replicates; controls 4 of 9).
With EGDSLRYYYQN / GANNRPS / SSRDSSGFQRF the result was 4.52 (2 of 3 replicates; controls 4 of 9).
With EGDSLRYYYAN / GPNNRPS / SSRMSSGFQVV the result was 2.57 (3 of 3 replicates; controls 7 of 9).
With EGDSLRYYYAN / KWNNRPS / SSRDSSGFQVF the result was nd (0 of 3 replicates; controls 1 of 9).
With EGDNLRYYYAN / GYNNRPS / SSRDSEGFQVF the result was 4.54 (1 of 3 replicates; controls 1 of 9).
With EGDSLRYYYTN / GRTNRPS / SSRDSSGFQVF the result was nd (0 of 3 replicates; controls 2 of 9).
With EGDSLDYYYAN / GENNRPS / SSRDSSGFQCF the result was 2.68 (3 of 3 replicates; controls 6 of 9).
With EGDSLRYYYAN / GFNNRPS / SSRDSSGFQVF the result was 3.02 (3 of 3 replicates; controls 4 of 9).

7 of these entries, quoted again:

EGDSLRYYYAG / GSNNRPS / SSRDSSGFQVM: 3.58 (3 of 3 replicates; controls 1 of 9).
EGDSLRYYYAN / GTNNRPT / SSRDSMGFQVF: 3.58 (1 of 3 replicates; controls 1 of 9).
EGDSGRYYYAV / GSNNRPS / SSRDSSGFQVF: 3.82 (1 of 3 replicates; controls 1 of 9).
EGDSLRYYYAH / GCNNRPS / SSRDSSGFQVF: 4.57 (2 of 3 replicates; controls 3 of 9).
EGDSLRYYYQN / GANNRPS / SSRDSSGFQRF: 4.52 (2 of 3 replicates; controls 4 of 9).
EGDSLRYYEAN / GFNNVPS / SSRDSSGFQVF: 3.10 (1 of 3 replicates; controls 0 of 9).
EGDSLRYYNAN / GRNNRMS / SSRDSSGFQVF: 1.16 (3 of 3 replicates; controls 1 of 9).